Test results: patent US10023836B2, “Medium for yeasts” (YAMAGUCHI UNIVERSITY, priority 2012, dated 2018)

System: Saccharomyces cerevisiae RAK3599 strain
Assay: SynAA culture medium: elimination of single components and inorganic ion concentration
Format: cell-based
Protocol: In a case where no special provisions are made, a procedure for a cultivation experiment using the culture medium to be investigated for proliferation was such that a yeast undergoing investigation was pre-cultured in a YPD liquid culture medium at 28° C. for 24 hours, after which the yeast was adjusted such that OD600=20. […] In addition, OD600 was measured every 15 minutes by a spectrophotometer (Cell density meter co8000, WPA). Hereafter, data is represented by graphs for a case using the automatic spectrophotometer; however, these graphs are primarily used to compare the slope of logarithmic growth phase proliferation curves for each culture medium, and because OD600 is measured without dilution, values where OD600=3 to 3.5 or more may be incorrect.
Culture mediums were prepared in which one component each of the components configuring the inorganic ion mix was eliminated from the SynAA culture medium, and OD600 was measured. […] Thereafter, an investigation specifically of inorganic ion concentration was conducted. […] An investigation was conducted using RAK3599 strain (hereafter, simply referred to as “RAK3599 strain”), which is a strain of Saccharomyces cerevisiae not having a particular nutritional requirement. […]

Structure (SMILES): O=C(O)CCCC[C@@H]1SC[C@@H]2NC(=O)N[C@@H]21 [biotin]
- essentiality for increasing proliferation: essential components
